The record followed here is PMC3972757.

For test [1], the target named is UIM-SH3 of STAM2. Kind of test: ITC.
The target in test [2] is SH3 domain of STAM2 (UniProt O75886). Kind of test: ITC. For orientation: In ITC the heat of successive injections is recorded.

Broadly, the Kd is the free concentration of one partner at which half of the binding sites on the other are occupied at equilibrium, for simple one-to-one binding. For “Lys63-linked diubiquitin (from UniProt P0CG47 1-76)”, the Kd in test [1] worked out at 54 µM. On to “ubiquitin (from UniProt P0CG47 1-76) (natural protein)”, for which the dH in test [2] is -4.1 kcal/mol.
